According to publication PMC2671235:

Biological target: Annexin I peptide
Test: ITC

stoichiometry N (binding sites per dimer): 2
Substance: S100A6 (from UniProt P06703 1-90) (natural protein)
